Experimental data as given in patent US10214520B2, “Substituted azaspiro(4.5)decane derivatives” (priority 2014, dated 2019).
pKi: −log10 of the molar value. Where two headings read alike, the source gives them in different places.

Protein sequences, listed by entry. Tags and fused reporters are not part of them. Lines headed by an entry give the natural chain unless they say otherwise; changes in a name come on top.
UniProt P41146: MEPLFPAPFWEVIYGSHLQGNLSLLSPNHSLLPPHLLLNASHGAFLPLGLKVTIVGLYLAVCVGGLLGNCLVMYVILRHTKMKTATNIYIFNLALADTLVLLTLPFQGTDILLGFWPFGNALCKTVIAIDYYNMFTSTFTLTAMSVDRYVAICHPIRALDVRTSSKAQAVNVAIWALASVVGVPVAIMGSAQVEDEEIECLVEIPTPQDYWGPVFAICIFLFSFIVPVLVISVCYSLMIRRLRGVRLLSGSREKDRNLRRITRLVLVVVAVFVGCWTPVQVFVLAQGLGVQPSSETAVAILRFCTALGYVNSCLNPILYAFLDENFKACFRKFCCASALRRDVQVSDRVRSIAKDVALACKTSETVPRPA
UniProt P35372, whole entry, looked up: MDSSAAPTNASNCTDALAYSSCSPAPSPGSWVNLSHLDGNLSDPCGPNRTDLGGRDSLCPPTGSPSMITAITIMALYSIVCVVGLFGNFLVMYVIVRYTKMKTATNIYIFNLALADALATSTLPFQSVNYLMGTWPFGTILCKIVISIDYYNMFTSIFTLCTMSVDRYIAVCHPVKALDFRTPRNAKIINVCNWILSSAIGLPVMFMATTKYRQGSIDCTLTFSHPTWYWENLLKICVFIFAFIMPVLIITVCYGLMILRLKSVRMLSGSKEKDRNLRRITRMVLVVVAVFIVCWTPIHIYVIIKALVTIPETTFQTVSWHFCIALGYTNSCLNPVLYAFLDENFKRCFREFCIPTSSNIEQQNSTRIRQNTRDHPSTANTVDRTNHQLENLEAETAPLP

Key:
ORL1 receptor = ORL1 receptor (Homo sapiens, UniProt P41146); details: for % inhibition (ORL1) [1 μM] / ORL1 % Inhibition @ 1 μM: test concentration 1 μM
human μ opiate receptor = human μ opiate receptor (Homo sapiens, UniProt P35372); experiment: μ opiate receptor binding assay with [3H]-naloxone, membrane preparation of CHO-K1 cells (WGA-SPA beads); details: for % inhibition (μ) [1 μM] / MOP % Inhibition @1 μM: test concentration 1 μM
[1] = read-out: Ki (ORL1) mean [μm], mean
[2] = read-out: Ki (μ) mean [μm], mean

Molecule	pKi (ORL1 receptor; [1])	% inhibition (ORL1) [1 μM] (ORL1 receptor)	pKi (human μ opiate receptor; [2])	% inhibition (μ) [1 μM] (human μ opiate receptor)	pKi (ORL1 receptor; read-out: ORL1 Ki)	ORL1 % Inhibition @ 1 μM (ORL1 receptor)	pKi (human μ opiate receptor; read-out: MOP Ki)	MOP % Inhibition @1 μM (human μ opiate receptor)
CN(C)C1(c2ccccc2)CCC2(CCN(Cc3ccncc3)C2)CC1 (centres unmarked)	7.05	57%	7.02	76%				
Cc1cc(C(=O)NCCCN2C[C@]3(CC[C@@](c4ccccc4)(N(C)C)CC3)CC2=O)on1					6.56	55%	7.24	88%
CN(C)[C@]1(c2ccccc2)CC[C@]2(CC1)CC(=O)N(CC(=O)N1CCS(=O)(=O)CC1)C2					8.10	93%	8.74	98%
CN(C)[C@]1(c2ccccc2)CC[C@]2(CC1)CC(=O)N(CCC(N)=O)C2					6.67		6.75	
CN(C)[C@]1(c2ccccc2)CC[C@]2(CC1)CC(=O)N(CC(=O)NCc1ccccc1)C2					8.42	93%	8.51	101%
CN(C)[C@]1(c2ccccc2)CC[C@]2(CC1)CC(=O)N(Cc1ccccc1C(=O)O)C2					8.17	93%	8.40	100%
CN(C)C1(c2ccccc2)CCC2(CCN(Cc3cccnc3)C2)CC1 (centres unmarked)	7.81	80%	7.29	89%				
CN(C)C1(c2ccccc2)CCC2(CC1)CC(=O)N(CCC(C)(C)C(=O)NCC(C)(C)O)C2 (centres unmarked)					7.33	58%	7.11	90%
CN(C)C1(CC2CCCC2)CCC2(CCN(Cc3ccccc3)C2)CC1 (centres unmarked)	7.66	83%	8.26	99.5%				
CN(C)[C@]1(c2ccccc2)CC[C@]2(CC1)CC(=O)N(CCCNC(=O)c1ccccc1)C2					7.23	74%	8.25	95%
CC(=O)N1CC(CN2CCC3(CCC(c4cccs4)(N(C)C)CC3)C2)C1 (centres unmarked)	6.98	52%	7.81	93.5%				
CN(C)C1(c2ccccc2)CCC2(CC1)CC(=O)N(CCC(C)(C)C(=O)NCC1CCS(=O)(=O)CC1)C2 (centres unmarked)					7.58	56%	7.57	87%
COc1cnc(NC(=O)CN2C[C@]3(CC[C@@](c4ccccc4)(N(C)C)CC3)CC2=O)cn1					6.05	24%	6.99	76%
CN(C)C(=O)CN(C)C(=O)CN1C[C@]2(CC[C@@](c3ccccc3)(N(C)C)CC2)CC1=O					6.49	50%	6.93	87%
CN(C)[C@]1(c2ccccc2)CC[C@]2(CC1)CC(=O)N(CC(=O)NCC(C)(C)O)C2					6.99	73%	7.19	78%
CCNC(=O)N1CCC2(CCC(Cc3ccccc3)(N(C)C)CC2)C1 (centres unmarked)	6.36	34.5%	7.29	76.5%				
CN1CCC(CN2CC3(CCC(c4cccs4)(N(C)C)CC3)CC2=O)CC1 (centres unmarked)	7.02	63%	7.71	95.5%				
CN1CCC(CCN2CC3(CCC(c4cccs4)(N(C)C)CC3)CC2=O)CC1 (centres unmarked)	6.80	62.5%	7.44	94.5%				
CN(C)[C@]1(c2ccccc2)CC[C@]2(CC1)CC(=O)N(CCC1(C(=O)O)CCOCC1)C2					5.83	24%	6.46	65%
CN(C)[C@]1(c2cnccn2)CC[C@]2(CC1)CC(=O)N(CCCC(N)=O)C2						4%		39%

Molecule	pKi (ORL1 receptor; [1])	% inhibition (ORL1) [1 μM] (ORL1 receptor)	pKi (human μ opiate receptor; [2])	% inhibition (μ) [1 μM] (human μ opiate receptor)	pKi (ORL1 receptor; read-out: ORL1 Ki)	ORL1 % Inhibition @ 1 μM (ORL1 receptor)	pKi (human μ opiate receptor; read-out: MOP Ki)	MOP % Inhibition @1 μM (human μ opiate receptor)
CN(C)C1(c2ccccc2)CCC2(CC1)CC(=O)N(CC(=O)NC(C)(C)C#N)C2 (centres unmarked)					7.39	87%	7.99	94%
CN(C)[C@]1(c2ccccc2)CC[C@]2(CC1)CC(=O)N(Cc1ccccn1)C2					8.00	74%	8.10	99%
CN(C)[C@]1(c2ccccc2)CC[C@]2(CC1)CC(=O)N(CCC(C)(C)C(N)=O)C2					7.74	94%	7.59	98%
CN(C)[C@]1(c2ccccc2)CC[C@]2(CC1)CC(=O)N(CCC(C)(C)C(=O)NCC#N)C2					7.51	83%	7.56	92%
CN(C)C1(c2ccccc2)CCC2(CCN(C(=O)c3ccncc3)C2)CC1 (centres unmarked)	6.22	21.5%	5.94	46.5%				
CN(C)[C@]1(c2ccccc2)CC[C@]2(CC1)CC(=O)N(CCCNC(=O)OC(C)(C)C)C2					6.68	60%	7.51	98%
CN(C)[C@]1(c2ccccc2)CC[C@]2(CC1)CC(=O)N(CC(=O)NCCC#N)C2					7.59	73%	8.15	97%
CNC(=O)C(C)(C)CCN1C[C@]2(CC[C@@](c3ccccc3)(N(C)C)CC2)CC1=O					7.39	74%	7.44	96%
CN(C)[C@]1(c2ccccc2)CC[C@]2(CC1)CC(=O)N(c1ccc(C#N)cc1)C2					6.33	32%	6.76	85%
CN(C)[C@]1(c2cnccn2)CC[C@]2(CC1)CC(=O)N(CCC(C)(C)C(N)=O)C2					6.64	44%	6.60	61%
CN(C)C1(c2ccccc2)CCC2(CC1)CC(=O)N(Cc1ccccc1)C2 (centres unmarked)	7.14	62.5%	6.34	61%				
CN(C)C1(c2ccccc2)CCC2(CC1)CC(=O)N(CCC1(C(=O)OC(C)(C)C)CCS(=O)(=O)CC1)C2 (centres unmarked)					6.85	54%	8.85	100%
CN(C)[C@]1(c2ccccc2)CC[C@]2(CC1)CC(=O)N(CC(=O)NCC(N)=O)C2					6.40	29%	6.72	72%
CNC(=O)CNC(=O)C(C)(C)CCN1CC2(CCC(c3ccccc3)(N(C)C)CC2)CC1=O (centres unmarked)					7.37	81%	6.83	88%
COc1cccnc1N1C[C@]2(CC[C@](c3ccccc3)(N(C)C)CC2)CC1=O					6.47		5.86	
CN(C)C1(c2ccccc2)CCC2(CC1)CC(=O)N(CC(C)(C)C(=O)N1CCS(=O)(=O)CC1)C2 (centres unmarked)					7.08	75%	7.16	94%
CN(C)[C@]1(c2ccccc2)CC[C@]2(CC1)CC(=O)N(CCC(C)(C)C(=O)Nc1cncnc1)C2					7.71	85%	8.24	98%
Trans-8-Dimethylamino-2,8-diphenyl-2-azaspiro[4.5]decan-3-one					6.60	34%	5.64	40%
CN(C)[C@]1(c2ccccc2)CC[C@]2(CC1)CC(=O)N(CCCNC(=O)c1ccncn1)C2					6.65	45%	7.05	87%
CN(C)[C@]1(c2ccccc2)CC[C@]2(CC1)CC(=O)N(CCC1(C(=O)OC(C)(C)C)CCOCC1)C2							8.54	101%
